In publication PMC11666562, “A shorter linker in the bispecific antibody RmAb158-scFv8D3 improves TfR-mediated blood-brain barrier transcytosis in vitro” (Scientific Reports, 2024):

Biological target: the molecule itself
Test: mass photometry; mTfR_(Pro119) at 119 nM in PBS, Refeyn 2MP; monomer to dimer

B1: mTfR_(Pro119), extracellular domain of murine transferrin receptor (domain or fragment)
chain: not shown
notes: murine transferrin receptor 1 (mTfR), extracellular domain (ectodomain); construct called mTfR_(Pro119); theoretical molecular weight of the polypeptide 78 kDa; The methods name only a Protein G column for all proteins, so a tag or fusion partner may be present (surmise); also called mTfR ectodomain; murine TfR1; source: Expi293 cells, transient transfection, purified from the cell culture medium
**Q.** How did the “stoichiometry N” value turn out when B1 was run?
**A.** 2
